These results are taken from BindingDB's records for doi:10.1016/s0028-3908(96)00171-2 (Smithkline Beecham Pharmaceuticals, 1997).

Protein sequences, listed by entry. Tags and fused reporters are not part of them.
UniProt P41595, whole entry: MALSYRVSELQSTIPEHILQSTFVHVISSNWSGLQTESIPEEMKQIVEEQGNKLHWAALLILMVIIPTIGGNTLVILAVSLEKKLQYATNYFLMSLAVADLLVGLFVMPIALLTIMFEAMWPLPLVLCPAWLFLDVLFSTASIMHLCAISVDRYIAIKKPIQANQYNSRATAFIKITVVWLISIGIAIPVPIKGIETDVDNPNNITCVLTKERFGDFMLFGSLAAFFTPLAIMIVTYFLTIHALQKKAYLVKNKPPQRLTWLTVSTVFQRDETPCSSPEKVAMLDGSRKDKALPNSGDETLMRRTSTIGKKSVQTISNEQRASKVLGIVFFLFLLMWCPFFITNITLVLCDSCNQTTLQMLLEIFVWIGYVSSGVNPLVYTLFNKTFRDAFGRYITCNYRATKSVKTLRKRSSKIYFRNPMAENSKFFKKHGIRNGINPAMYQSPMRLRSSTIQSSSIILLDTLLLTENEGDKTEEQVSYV

The target in the experiment is 5-hydroxytryptamine receptor 2B (Homo sapiens, UniProt P41595).

Turning to `CC(N)Cc1c[nH]c2ccc(OCc3cccs3)cc12` (stereo unspecified) [NSC_5311036], the affinity, expressed as Ki, was 63.1 nM.
